Source: US20180086837A1

By UniProt entry, the sequences of proteins in these tests, tags left out.
UniProt P61073, whole entry D187V: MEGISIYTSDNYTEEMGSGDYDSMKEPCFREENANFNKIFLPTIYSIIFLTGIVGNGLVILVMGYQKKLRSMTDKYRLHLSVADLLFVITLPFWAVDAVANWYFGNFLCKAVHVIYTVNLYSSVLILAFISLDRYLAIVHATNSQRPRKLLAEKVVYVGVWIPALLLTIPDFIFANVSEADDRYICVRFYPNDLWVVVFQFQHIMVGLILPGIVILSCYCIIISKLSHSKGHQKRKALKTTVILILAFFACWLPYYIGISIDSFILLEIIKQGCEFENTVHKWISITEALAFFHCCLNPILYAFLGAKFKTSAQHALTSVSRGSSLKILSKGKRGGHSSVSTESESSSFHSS
UniProt P61073, whole entry F189V: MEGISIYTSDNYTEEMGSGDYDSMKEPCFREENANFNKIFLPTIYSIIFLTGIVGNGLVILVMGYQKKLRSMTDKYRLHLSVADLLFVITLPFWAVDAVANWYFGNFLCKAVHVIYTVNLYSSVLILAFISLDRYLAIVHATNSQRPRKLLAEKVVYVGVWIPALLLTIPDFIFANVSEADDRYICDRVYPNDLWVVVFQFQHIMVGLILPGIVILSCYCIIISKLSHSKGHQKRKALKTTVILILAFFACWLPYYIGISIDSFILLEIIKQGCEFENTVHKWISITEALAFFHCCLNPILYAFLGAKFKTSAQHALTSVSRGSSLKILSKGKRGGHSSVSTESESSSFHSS

Assays:
hCXCR4 D187V (human) [1] = biological target: hCXCR4 D187V (human) (UniProt P61073); experiment: flow cytometry, transfected HEK293T cells; normalisation reference (column 10 nM)
hCXCR4 F189V (human) [2] = biological target: hCXCR4 F189V (human) (UniProt P61073); experiment: as above
hCXCR4 D187V (human) [3] = biological target: hCXCR4 D187V (human) (UniProt P61073); experiment: flow cytometry, transfected HEK293T cells; normalisation reference (column 100 nM)
hCXCR4 F189V (human) [4] = biological target: hCXCR4 F189V (human) (UniProt P61073); experiment: as above

% binding relative to hCXCR4 (hCXCR4 D187V (human) [1]): 100%
% binding relative to hCXCR4 (hCXCR4 F189V (human) [2]): 100%
% binding relative to hCXCR4 (hCXCR4 D187V (human) [3]): 100%
% binding relative to hCXCR4 (hCXCR4 F189V (human) [4]): 100%
Substance: anti-CXCR4 monoclonal antibody 12G5 (R&D Systems, MAB170)
